# Laboratory results as given in PubChem BioAssay AID504908 (NMMLSC, 2011).
# Sequences of proteins named here, by UniProt entry; tags and fusion partners are left off. A change or cut given only in a name is not applied to a line headed by its entry.
# UniProt P63010: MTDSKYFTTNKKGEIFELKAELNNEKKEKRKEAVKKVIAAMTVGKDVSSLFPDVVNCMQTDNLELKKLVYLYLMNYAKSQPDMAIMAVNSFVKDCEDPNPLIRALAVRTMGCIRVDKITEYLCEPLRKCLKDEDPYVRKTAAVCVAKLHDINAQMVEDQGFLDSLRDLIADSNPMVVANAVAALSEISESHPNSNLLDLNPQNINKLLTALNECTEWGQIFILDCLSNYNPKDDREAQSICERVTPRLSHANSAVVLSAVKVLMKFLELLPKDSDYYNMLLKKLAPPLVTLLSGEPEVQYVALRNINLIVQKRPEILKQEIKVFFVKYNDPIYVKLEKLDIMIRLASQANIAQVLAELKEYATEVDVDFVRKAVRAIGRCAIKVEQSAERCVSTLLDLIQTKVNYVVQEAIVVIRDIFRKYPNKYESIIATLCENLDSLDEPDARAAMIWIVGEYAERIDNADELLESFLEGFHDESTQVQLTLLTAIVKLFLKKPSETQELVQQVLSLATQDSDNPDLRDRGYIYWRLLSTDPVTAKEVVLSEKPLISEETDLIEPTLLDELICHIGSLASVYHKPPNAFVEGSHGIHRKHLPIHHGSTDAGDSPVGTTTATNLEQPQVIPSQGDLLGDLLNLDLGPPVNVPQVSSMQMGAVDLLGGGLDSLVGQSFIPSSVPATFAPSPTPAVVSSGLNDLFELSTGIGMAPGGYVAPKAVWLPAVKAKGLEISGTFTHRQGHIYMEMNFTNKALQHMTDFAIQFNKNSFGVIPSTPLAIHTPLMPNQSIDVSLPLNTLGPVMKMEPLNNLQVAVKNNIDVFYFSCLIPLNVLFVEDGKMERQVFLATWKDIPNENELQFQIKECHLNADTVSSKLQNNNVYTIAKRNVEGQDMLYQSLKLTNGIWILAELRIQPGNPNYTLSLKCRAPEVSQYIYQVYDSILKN
# The list shows a part of the results, in another mix than the full data. The source made the active and inactive calls.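 The calls were made as follows: active = inhibition above a set limit, roughly 3 SD of non-fluorescent compound noise (cut at about 38% in these data); inactive = inhibition at or below that limit.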
# Biological target: AP-2 complex subunit beta (Homo sapiens) (UniProt P63010)
# Assay: inhibitors of arrestin peptide binding to AP2, confirmation, biochemical, cherry pick 1, flow cytometry beads (AID 504908);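 also: loss of bead fluorescence from 50 nM FITC arrestin peptide bound to appendage; 0% = negative control wells and 100% = excess unlabelled arrestin peptide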
# Details: GST-AP2 beads, FITC arrestin peptide binding, at 10 µM, stronger effect = higher value, GST-fused beta2-adaptin appendage, R879A mutant
row,SMILES,inhibition
1,COC(=O)c1cc2c(s1)N=C(c1ccccc1)N(C)P2(=O)N1CCOCC1 (stereo unspecified),inactive: -3.24%
